The record followed here is US20150368338A1 (Janssen / Centocor, published 2015).

As a reminder, the Kd is the concentration at which binding is half-saturated. High values mean lower affinity, low ones higher affinity.

The target of experiment [1] is T1, IFN-αC (human, UniProt P01566 24-189).
T1 construct: Recombinant, HEK293; also called IFN-α10
The experiment can be described thus: ProteOn SPR, cell supernatant.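 Note: each binding measurement used just a single antigen concentration.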

The target of experiment [2] is T2, IFN-αB2 (human, UniProt P32881 24-189).
T2 construct: Recombinant, HEK293; also called IFN-α8
The experiment can be described thus: ProteOn SPR, cell supernatant.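 Note: each binding measurement used just a single antigen concentration.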

The target in experiment [3] is IFN-αB2 (human, UniProt P32881 24-189). The experiment can be described thus: cell-based or functional assay.
Experiment [4] concerns the target T3, IFN-αF (human, UniProt P01568 24-189).
T3 construct: also called IFN-α21; alpha F
T3 chain: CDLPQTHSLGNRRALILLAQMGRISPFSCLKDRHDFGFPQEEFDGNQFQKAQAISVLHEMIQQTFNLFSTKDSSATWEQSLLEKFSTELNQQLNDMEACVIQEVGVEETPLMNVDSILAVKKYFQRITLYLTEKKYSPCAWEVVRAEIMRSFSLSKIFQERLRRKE
The experiment can be described thus: ProteOn, one antigen concentration.

Experiment [5] has as its target T4, IFN-αB2 (human, UniProt P32881 24-189).
T4 construct: also called IFN-α8; IFN alpha B2
The experiment can be described thus: ProteOn, one antigen concentration.

B1: IFWM3401 (antibody, IgG1, V domains shown)
VH: EVQLVQSGAEVKKPGESLKISCKGSGYSFTSYWIGWVRQMPGKGLEWMGIIDPSDSDTRYSPSFQGQVTISADKSISTAYLQWSSLKASDTAMYYCARHPGLAWAPDFDYWGQGTLVTVSS
VL: DIQMTQSPSSLSASVGDRVTITCRASQSITNHLNWYQQKPGKAPKLLIYFASSLQSGVPSRFSGSGSGTDFTLTISSLQPEDFATYYCQQAHNFPLTFGQGTKVEIK
notes: mAb; IgG1/kappa said of the parent and of selected mAbs; also called IFWB3136
B1: the Kd in experiment [1] and in experiment [2] was 0.042 nM throughout.

B2: IFWM3522 (antibody, IgG1, V domains shown)
VH: EVQLVQSGAEVKKPGESLKISCKGSGYSFTSYWIGWVRQMPGKGLEWMGIIDPSDSDTRYSPSFQGQVTISADKSISTAYLQWSSLKASDTAMYYCARHPGLNWAPDFDYWGQGTLVTVSS
VL: DIQMTQSPSSLSASVGDRVTITCRASQSIEGALNWYQQKPGKAPKLLIYFASSLQSGVPSRFSGSGSGTDFTLTISSLQPEDFATYYCQQAYDFPLTFGQGTKVEIK
As to B2, the “IC50, ISRE reporter gene assay” value in experiment [3] worked out at 0.096 nM.

B3: IFWM3525 (antibody, IgG1, V domains shown)
VH: EVQLVQSGAEVKKPGESLKISCKGSGYSFTSYWIGWVRQMPGKGLEWMGIIDPSDSDTRYSPSFQGQVTISADKSISTAYLQWSSLKASDTAMYYCARHPGLNWAPDFDYWGQGTLVTVSS
VL: DIQMTQSPSSLSASVGDRVTITCRASQSIDNSYLNWYQQKPGKAPKLLIYGASSLQSGVPSRFSGSGSGTDFTLTISSLQPEDFATYYCQQGYDFPLTFGQGTKVEIK
For the molecule B3, the “IC50, ISRE reporter gene assay” value in experiment [3] worked out at 0.025 nM.

B4: IFWM3307 (antibody, V domains shown)
VH: EVQLVQSGAEVKKPGESLKISCKGSGYSFTSYWIGWVRQMPGKGLEWMGIIDPSDSDTRYSPSFQGQVTISADKSISTAYLQWSSLKASDTAMYYCARHPGLNWAPDFDYWGQGTLVTVSS
VL: DIQMTQSPSSLSASVGDRVTITCRASQSIGDFLNWYQQKPGKAPKLLIYFASSLQSGVPSRFSGSGSGTDFTLTISSLQPEDFATYYCQQALDFPLTFGQGTKVEIK
notes: VH IFWH591, VL IFWL1001; converted mAb; also called IFWB3042
Take B4: the Kd in experiment [4] and in experiment [5] was 0.055 nM throughout.
